Measured values from patent EP0930314A1, “p-TOLUENESULFONATE HYDRATE OF THIAZOLINE COMPOUND” (TAISHO PHARMACEUTICAL CO. LTD, priority 1996, dated 1998).

Amino acid sequences for entries named in this document (tags omitted). Residues count along the entry.
UniProt P05106, 27-788: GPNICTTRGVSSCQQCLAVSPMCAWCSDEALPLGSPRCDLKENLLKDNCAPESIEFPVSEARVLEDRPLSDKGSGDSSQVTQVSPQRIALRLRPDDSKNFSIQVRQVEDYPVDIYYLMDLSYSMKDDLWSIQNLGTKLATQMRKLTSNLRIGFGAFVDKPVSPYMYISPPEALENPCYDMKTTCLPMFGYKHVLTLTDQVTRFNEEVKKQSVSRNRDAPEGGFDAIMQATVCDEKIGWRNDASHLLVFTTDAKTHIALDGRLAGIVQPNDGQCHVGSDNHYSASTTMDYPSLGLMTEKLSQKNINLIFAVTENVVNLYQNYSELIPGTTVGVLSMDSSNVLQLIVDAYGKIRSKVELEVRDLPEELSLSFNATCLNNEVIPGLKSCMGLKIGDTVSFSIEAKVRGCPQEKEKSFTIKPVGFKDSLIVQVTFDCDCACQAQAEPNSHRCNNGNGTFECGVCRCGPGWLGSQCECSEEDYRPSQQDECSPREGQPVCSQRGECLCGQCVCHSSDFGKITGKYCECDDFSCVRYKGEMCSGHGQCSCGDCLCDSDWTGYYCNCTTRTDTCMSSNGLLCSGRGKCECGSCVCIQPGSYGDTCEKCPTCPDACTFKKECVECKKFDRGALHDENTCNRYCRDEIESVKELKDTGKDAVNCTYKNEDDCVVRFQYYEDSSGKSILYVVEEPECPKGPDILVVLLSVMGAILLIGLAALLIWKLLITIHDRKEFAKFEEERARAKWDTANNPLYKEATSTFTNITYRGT
UniProt P08514, 32-887 limits assumed: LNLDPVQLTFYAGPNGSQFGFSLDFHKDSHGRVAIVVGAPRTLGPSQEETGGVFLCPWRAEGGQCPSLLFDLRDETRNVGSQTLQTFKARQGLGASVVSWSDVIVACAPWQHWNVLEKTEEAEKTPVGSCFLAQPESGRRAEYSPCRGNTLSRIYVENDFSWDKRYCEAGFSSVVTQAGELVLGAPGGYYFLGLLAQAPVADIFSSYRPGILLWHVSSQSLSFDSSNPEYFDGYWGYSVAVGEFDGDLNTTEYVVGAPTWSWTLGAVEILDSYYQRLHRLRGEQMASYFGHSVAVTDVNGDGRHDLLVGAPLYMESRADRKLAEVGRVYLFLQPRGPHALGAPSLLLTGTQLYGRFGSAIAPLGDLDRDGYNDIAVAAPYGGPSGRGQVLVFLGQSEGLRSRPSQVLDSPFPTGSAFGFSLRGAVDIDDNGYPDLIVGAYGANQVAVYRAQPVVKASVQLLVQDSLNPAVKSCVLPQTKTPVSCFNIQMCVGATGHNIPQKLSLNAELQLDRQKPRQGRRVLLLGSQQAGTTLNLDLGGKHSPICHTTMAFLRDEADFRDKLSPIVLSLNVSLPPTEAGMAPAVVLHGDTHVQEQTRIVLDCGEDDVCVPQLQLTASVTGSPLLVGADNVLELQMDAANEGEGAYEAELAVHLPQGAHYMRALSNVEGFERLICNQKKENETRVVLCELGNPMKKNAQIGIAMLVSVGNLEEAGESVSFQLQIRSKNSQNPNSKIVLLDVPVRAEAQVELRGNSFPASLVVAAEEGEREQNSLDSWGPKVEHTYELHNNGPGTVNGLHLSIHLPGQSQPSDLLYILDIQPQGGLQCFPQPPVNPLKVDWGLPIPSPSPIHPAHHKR
UniProt P08514, 891-1039 partner limits assumed: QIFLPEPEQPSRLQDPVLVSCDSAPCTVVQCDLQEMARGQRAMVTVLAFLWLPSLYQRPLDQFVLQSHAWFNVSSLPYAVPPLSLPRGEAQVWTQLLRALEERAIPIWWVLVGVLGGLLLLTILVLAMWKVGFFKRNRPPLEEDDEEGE

Biological target: Purified GPIIb/IIIa receptor (Homo sapiens, UniProt P05106+P08514)
Assay: Fibrinogen receptor (GPIIb/IIIa) binding inhibition test (solid-phase, ELISA detection of bound fibrinogen)
Design: made in house
Conditions: inhibition of fibrinogen (2 µg/ml) binding to solid phased purified GPIIb/IIIa, 4°C, 16 hours
Experimental: Purified GPIIb/IIIa was prepared by referring to the methods of Pytela et al (Science, 231 (1986) 1559) and a binding measurement system of solid phased GPIIb/IIIa was carried out by referring to the method of Kouns et al (Blood, 80 (1992) 2539).
Purified GPIIb/IIIa receptor was solidified on 96-well microtiter plates by reacting in a solution (pH 7.4) containing 20 mM Tris-hydrochloric acid, 150 mM sodium chloride, 1 mM calcium chloride, 1 mM magnesium chloride and 0.0005 % Triton X-100 at 4°C for 16 hours. The solid phase was then washed once with a solution (pH 7.4) containing 20 mM Tris-hydrochloric acid, 150 mM sodium chloride, 1 mM calcium chloride, 1 mM magnesium chloride and 0.05 % Tween 20 (Buffer B), and blocked by a solution (pH 7.4) containing 20 mM Tris-hydrochloric acid, 150 mM sodium chloride, 1 mM calcium chloride, 1 mM magnesium chloride and 25 % Block Ace in an amount of 150 µL/well at room temperature for 2 hours. […] The amount of the fibrinogen bound to the plates was measured by an enzyme-linked immunosorbent assay method using antifibrinogen primary antibody and peroxidase-labelled secondary antibody to calculate IC50 value. […]

Question: How did the IC50 turn out when `N=C(N)NCCC[C@H](NC(=O)CN)C(=O)NCC(=O)N[C@@H](CC(=O)O)C(=O)N[C@@H](CO)C(=O)O` [GRGDS, Gly-Arg-Gly-Asp-Ser] was run?
Answer: 680 nM
